Data on one substance can be found in patent US5902583A, “Genetic induction of receptors for targeted radiotherapy” (priority 1997, dated 1999).

Protein sequences, listed by entry. Tags and fused reporters are not part of them. Lines headed by an entry give the natural chain unless they say otherwise; changes in a name come on top.
UniProt P21729: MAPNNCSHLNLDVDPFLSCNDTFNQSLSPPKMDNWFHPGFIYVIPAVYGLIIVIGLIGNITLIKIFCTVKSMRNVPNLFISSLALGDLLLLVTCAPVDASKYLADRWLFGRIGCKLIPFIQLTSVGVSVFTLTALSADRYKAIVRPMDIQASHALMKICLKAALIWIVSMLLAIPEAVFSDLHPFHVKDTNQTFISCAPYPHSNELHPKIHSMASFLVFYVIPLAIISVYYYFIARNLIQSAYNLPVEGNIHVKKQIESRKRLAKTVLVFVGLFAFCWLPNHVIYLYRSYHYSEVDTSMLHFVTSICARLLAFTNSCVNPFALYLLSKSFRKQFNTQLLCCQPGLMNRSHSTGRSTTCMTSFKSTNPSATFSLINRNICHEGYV

The test deals with T1, murine gastrin releasing peptide receptor (mGRPr) (Mus musculus, UniProt P21729).
T1 construct: expressed in transfected cells; host or cells: human carcinoma lines A427, D54MG, U251MG, LS174T, WiDr, OVCAR-3, OV-4, SKOV3.ip1 infected with AdCMVGRPr; positive control: mouse fibroblast line BNR-11 stably expressing mGRPr
The experiment in a line: Live-cell binding of radiolabeled bombesin after AdCMVGRPr infection of human carcinoma cell lines. As for the experimental part:
Infections with recombinant adenoviruses were performed as previously described. Cells were harvested for radiolabeled binding assay 48 hours following adenoviral mediated infection by removal at 37° C. with 4 mM EDTA, 0.05% KCl. Detached cells were washed once with 0.1% BSA/PBS pH 7.2, enumerated and resuspended at 1×10^7 per ml. Each set of cells was aliquoted into 100 μl samples in duplicate polystyrene test tubes following the addition of 100,000 cpm (100 μl) of [^125 I]-Tyr-bombesin (DuPont NEN Research Products, Boston, Mass.). […] The solutions were mixed at room temperature for 1 hour, rinsed with PBE and centrifuged at 1700×g for 10 min. The supernatant was removed and the cells were counted in a gamma counter to determine the amount of bound radioactivity. Radioactivity bound was then plotted as the percent cpm bound to the cells versus the total amount of cpm added. The human ovarian carcinoma cell line SKOV3.ip1 expresses the cell surface receptor for erbB-2. Therefore, a non-internalizing monoclonal antibody (e21) against a cell surface epitope of erbB-2 was employed (provided by C. Richter King, Oncologix, Inc., Gaithersburg, Md.). The e21 antibody was ^125 I-labeled using the lodogen method and utilized in an in vitro live-cell binding assay with the SKOV3.ip1 cells. Cells were harvested as described above and incubated for 1 hour with 100 μl of a 2 μg/ml solution of ^125 I-labeled e21 antibody. Cells were washed and bound radioactivity determined as described above.
The obtained virus was structurally verified through polymerase chain reaction and restriction endonuclease digestion analysis (data not shown). Functional validation of the virus was performed through in vitro gene delivery methods. Human lung, colon and ovarian carcinoma cell lines, along with human glioma cell lines, were infected with 10 or 100 pfu/cell of AdCMVGRPr, or 100 pfu/cell of a control virus, AdCMVLacZ.

Regarding “[^125 I]-Tyr4 -bombesin [[^125 I]-Tyr-bombesin]”, under “A427, D54MG and U251MG, 10 or 100 pfu/cell AdCMVGRPr”, the “added radioactivity bound to the cells” value is given as 64.6-77.2%. Also, the added radioactivity bound result (LS174T and WiDr, 10 pfu/cell AdCMVGRPr) is “approximately 30%”; the added radioactivity bound (OV-4, 10 pfu/cell AdCMVGRPr) came out at 20%; the added radioactivity bound (OV-4, moi 100 AdCMVGRPr) worked out at 59.7%; the added radioactivity bound (OVCAR-3, 10 pfu/cell AdCMVGRPr) turned out to be 52.1%; the added radioactivity bound (OVCAR-3, 100 pfu/cell AdCMVGRPr) is 80.9%; the added radioactivity bound (OVCAR-3, uninfected) stood at 32%. The added radioactivity bound by setting is: (SKOV3.ip1, 10 pfu/cell AdCMVGRPr) 18.4%; (SKOV3.ip1, moi 100 AdCMVGRPr) 70.6%. The “binding of the radiolabeled bombesin peptide” value (LS174T and WiDr, 100 pfu/cell AdCMVGRPr) is given as 60%. For the same substance, the “binding of the radiolabeled peptide” value (human glioma cell lines, AdCMVLacZ) is recorded as 3-8%.
